Publication PMC7000712, “A kinetic method for measuring agonist efficacy and ligand bias using high resolution biosensors and a kinetic data analysis framework” (Scientific Reports, 2020)
Entries after “also recorded” stand apart in the source; their conditions may differ.

Assays:
angiotensin AT1 receptor [1] = test: Bias ratio, arrestin recruitment over Ca^2+ mobilization (kτ ratio); type: cell-based
Protocol: The arrestin, DAG and Ca^2+ data are shown in Fig. 5, for a maximally-stimulating concentration of the five ligands (32 μM). It is immediately obvious that curve shapes are different for the pathways - an association exponential curve defines arrestin recruitment (Fig. 5a) and a rise-and-fall curve defines DAG and Ca^2+ signaling (Fig. 5b,c). The kinetic analysis method was designed to handle this scenario - the initial rate can be extracted from different curve shapes[24],[25]. The initial rate of arrestin recruitment was quantified as described above, by multiplying the rate constant by the plateau of the association exponential fit, and the resulting kτ values are in Table 2. For DAG and Ca^2+, a rise-and-fall exponential equation was applied: y=C/kobs1−kobs2(e^−kobs2t−e^−kobs1t) kτ is equal to the value of C in this equation[24],[25]. The equation assumes two regulation mechanisms are in operation, corresponding to the two exponent terms. (These are most likely receptor desensitization and response degradation for DAG, and precursor depletion and response degradation for the shorter-term Ca^2+ response[25]). […]
The final, quantitative step in the bias assessment is the bias ratio calculation. […] In Fig. 6, the bias factor from the kτ ratio was compared with the bias factor calculated previously using a validated method, the operational model approach.

angiotensin AT1 receptor [2] = conditions: cited from earlier work
Text: We next evaluated four synthetic AT1 receptor ligands, SII, TRV120055, TRV120045 and TRV120026[40],[47]. (For clarity, the name of the last three compounds is abbreviated to TRV055, TRV045 and TRV026). These compounds were developed in SAR campaigns aiming to identify biased ligands for the AT1 receptor. […] Numerous methods and scales have been developed and successfully applied[8],[47],[53]–[59]. One approach is to compare ligand efficacy, i.e. the capacity of the agonist-occupied receptor to generate the signal. kτ provides such an efficacy value, being the initial rate of signal generation by the agonist-occupied receptor. Here kτ is used to assess signaling bias of the AT1 receptor ligands described above. These ligands have been reported to vary in their bias ... || The final, quantitative step in the bias assessment is the bias ratio calculation. This was done by dividing the normalized kτ value for arrestin recruitment by that for Ca^2+. […] Three ligands were arrestin-biased, evidenced by their arrestin/Ca^2+ kτ ratio being greater than 1 (3.1, 3.0 and 4.2 for TRV045, TRV026 and SII, Table 2). […] For example, SII is an established arrestin-b ...

angiotensin AT1 receptor [3] = target: T1, angiotensin AT1 receptor (Homo sapiens, UniProt P30556); test: Arrestin-3 (β-arrestin2) mNeonGreen biosensor recruitment, AT1 receptor, HEK 293 T cells (time course); type: cell-based; parameters: The unmodified receptor can be used, providing estimates of authentic rather than forced coupling to arrestin; host or cells: HEK 293 T cells, BacMam transduction, CMV promoter
Text: We and others have developed fluorescent biosensors in which intrinsically fluorescent protein sensors have been incorporated. (Three examples used in this study are R-GECO[22] for Ca^2+, Downward DAG for DAG and cADDis for cAMP[21]). The protein sensors have been engineered to be conformationally-sensitive, such that interaction with the signaling molecule of interest changes the optical properties, enabling the interaction to be detected as a change of fluorescence intensity. Since the proteins are intrinsically fluorescent, no chemical tagging or substrate addition is necessary to generate the optical signal. Here this approach was used to develop a biosensor of receptor-arrestin interaction (Fig. 1a).
We used the kτ method to quantify the kinetics of arrestin recruitment of five AT1 receptor ligands with known varying degrees of arrestin recruitment and bias. The method for quantifying kτ is as follows (illustrated schematically in Supplementary Fig. S5). […] From these fits the fitted parameter values were taken for Plateau and kobs. These values were then multiplied together. […] The data were then fit to the sigmoid curve equation, for example the “log(agonist) vs. response–Variable slope” equation in Prism[46]. From this fit kτ was obtained - it is the value of the asymptote. More precisely, kτ is the Plateau x kobs value for a maximally-effective concentration of ligand.
All that is required is a time course of response measurement at a single, maximally-stimulating concentration of ligand (maximally-stimulating at all time points). […] The data were fit to the association exponential equation to determine Plateau and kobs. kτ was then calculated - it is the Plateau multiplied by kobs for a maximally-stimulating concentration of ligand, as explained in the Appendix.
The first biosensors that positioned analyte binding domains in this position used a circularly permuted version of the fluorescent protein, and include the GCaMP and GECO Ca^2+ sensors, the upward and downward DAG sensors, and the caDDis cAMP sensor[21],[22]. More recently it has become clearer that if the termini of the analyte binding domain are close to one another, then the entire binding domain can be inserted into the 7th stave of the fluorescent protein without having to circularly permute the fluorescent protein[60].
HEK 293 T cells were cultured in Eagle’s minimum essential media (EMEM) supplemented with 10% fetal bovine serum (FBS) and penicillin-streptomycin at 37 °C in 5% CO2. For BacMam transduction, cells were resuspended in media at a density of 52,000 cells per 100 μL. […] For each experiment 4.24 × 10^8 viral genes of arrestin virus were added to each well. For multiplex experiments, 4.79 × 10^8 viral genes of the Red DAG sensor or 6.18 × 10^8. Viral genes of the Red cADDis (cAMP) sensor were added with the arrestin sensor. For experiments with the R-GECO sensor, 8.46 × 10^8 viral genes were added to each well. The viruses carrying the AT1 and V2 receptors were added such that 2.12 × 10^8 and 3.04 × 10^8 viral genes went into each well, respectively. For the β2-adrenoceptor experiment, 4.28 × 10^8 viral genes for the receptor and 2.13 × 10^8 viral genes of GPCR kinase 2 were added to each well.

angiotensin AT1 receptor [4] = target: T1, angiotensin AT1 receptor; test: Diacylglycerol production, Red Downward DAG sensor, AT1 receptor, HEK 293 T cells; type: cell-based; parameters: The unmodified receptor can be used, providing estimates of authentic rather than forced coupling to arrestin; host or cells: HEK 293 T cells, BacMam transduction, CMV promoter; conditions: 32 μM
Text: (§1) Biased agonism quantification relates the capacity of a ligand to activate one pathway relative to one or more other pathways[9]–[12]. Numerous methods and scales have been developed and successfully applied[8],[47],[53]–[59]. One approach is to compare ligand efficacy, i.e. the capacity of the agonist-occupied receptor to generate the signal. kτ provides such an efficacy value, being the initial rate of signal generation by the agonist-occupied receptor. Here kτ is used to assess signaling bias of the AT1 receptor ligands described above. […] In this study, G-protein signaling and arrestin recruitment was measured using the same fluorescent biosensor assay modality, enabling near-identical conditions to be employed in comparing the pathways. The Gq pathway was quantified at the level of diacylglycerol using the Red Downward DAG sensor[21] (Fig. 5b), and, one step downstream, Ca^2+ mobilization measured using the R-GECO sensor[22] […]
(§2) HEK 293 T cells were cultured in Eagle’s minimum essential media (EMEM) supplemented with 10% fetal bovine serum (FBS) and penicillin-streptomycin at 37 °C in 5% CO2. […] Thirty minutes prior to fluorescence plate reader or imaging experiments, the media in each well was replaced with 150 μL of Dulbecco’s phosphate buffered saline (DPBS) supplemented with Ca^2+ (0.9 mM) and Mg^2+ (0.5 mM). […]

angiotensin AT1 receptor [5] = target: T1, angiotensin AT1 receptor; test: Ca^2+ mobilization, R-GECO sensor, AT1 receptor, HEK 293 T cells; type: cell-based; parameters: The unmodified receptor can be used, providing estimates of authentic rather than forced coupling to arrestin; host or cells: HEK 293 T cells, BacMam transduction, CMV promoter; conditions: 32 μM
Text: as §1, §2

[6] = 32 µM, association exponential fit, Supplementary Table S1

CNCC(=O)N[C@@H](CCCNC(=N)N)C(=O)N[C@H](C(=O)N[C@@H](Cc1ccc(O)cc1)C(=O)N[C@@H](Cc1ccc(O)cc1)C(=O)N[C@@H](Cc1c[nH]cn1)C(=O)N1CCC[C@H]1C(N)=O)C(C)C [TRV026]
Arrestin/Ca^2+ kτ ratio (% AngII ratio) (angiotensin AT1 receptor [1]; 32 μM, kτ normalized to AngII for arrestin divided by that for Ca^2+): 3.0
signaling bias, arrestin vs Gq (in words) (angiotensin AT1 receptor [1]; kτ ratio arrestin/Ca^2+, relative to AngII): arrestin-biased
signaling bias, arrestin vs G-protein (in words, literature) (angiotensin AT1 receptor [2]): biased for arrestin recruitment over G-protein signaling
Plateau (angiotensin AT1 receptor [3]; [6]): 0.40 ± 0.01 NFU
kobs (angiotensin AT1 receptor [3]; [6]): 0.62 ± 0.08 min⁻¹
t1/2 of arrestin recruitment (angiotensin AT1 receptor [3]; 32 µM, calculated from kobs (t1/2 = 0.693/kobs)): 1.15 ± 0.13 min
kτ, initial rate of arrestin recruitment (concentration-response) (angiotensin AT1 receptor [3]; concentration-response method, asymptote of Plateau × kobs vs concentration, mean ± s.e.m., three experiments (SII n = 2), NFU, normalized fluorescence units, HEK 293 T, DPBS, Biotek Synergy Mx): 0.25 ± 0.03 NFU.min^−1
arrestin recruitment efficacy at the initial rate (in words) (angiotensin AT1 receptor [3]; initial rate, kτ method): intermediate between that of TRV055 and SII
pKA (angiotensin AT1 receptor [3]; ligand affinity from L50 of Plateau × kobs vs concentration curve, mean ± s.e.m., three experiments (SII n = 2)): 6.76 ± 0.05
kτ, arrestin (single concentration) (angiotensin AT1 receptor [3]; single maximally-stimulating concentration 32 μM, Plateau × kobs, mean ± s.e.m., three experiments (SII n = 2)): 0.25 ± 0.03 NFU.min^−1
DAG response (in words) (angiotensin AT1 receptor [4]): no response was detectable; also recorded: not detectable
Ca^2+ / G-protein response (in words) (angiotensin AT1 receptor [5]): Responses to these peptides were observed
kτ, calcium (angiotensin AT1 receptor [5]; C of rise-and-fall exponential fit with drift, mean ± s.e.m., three experiments): 0.46 ± 0.08 NFU.min^−1
